Assay results from patent publication US12162913B2, “Rhipicephalus nicotinic acetylcholine receptor and pest control acting thereon” (priority 2016, dated 2024).

Amino acid sequences for entries named in this document (tags omitted).
UniProt A0A223PM17, entry or part of it I539V: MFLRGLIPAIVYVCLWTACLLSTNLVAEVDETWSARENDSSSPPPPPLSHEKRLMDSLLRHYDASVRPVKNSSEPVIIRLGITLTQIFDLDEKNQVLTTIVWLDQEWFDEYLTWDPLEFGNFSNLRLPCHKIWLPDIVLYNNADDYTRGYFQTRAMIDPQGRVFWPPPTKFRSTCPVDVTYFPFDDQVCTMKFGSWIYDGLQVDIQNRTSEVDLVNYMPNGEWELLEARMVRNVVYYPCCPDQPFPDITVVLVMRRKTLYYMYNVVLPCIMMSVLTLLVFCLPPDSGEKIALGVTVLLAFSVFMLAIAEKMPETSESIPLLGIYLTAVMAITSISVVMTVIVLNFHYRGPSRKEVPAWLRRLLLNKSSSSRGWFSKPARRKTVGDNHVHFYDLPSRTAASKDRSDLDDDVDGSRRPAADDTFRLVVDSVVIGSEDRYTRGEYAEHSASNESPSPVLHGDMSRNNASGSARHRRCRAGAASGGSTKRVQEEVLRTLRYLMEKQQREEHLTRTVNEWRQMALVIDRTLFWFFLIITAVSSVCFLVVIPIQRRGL

Target: R. microplus nAChRα5 (Rmα5) homopentamers (Rhipicephalus microplus, UniProt A0A223PM17, I539V)
Experiment: cell-based
Description: The plasmids containing the sequences of choice were linearized using BeuI (Spel) FastDigest (ThermoFisher) restriction enzyme for 30 min at 37°, and an aliquot run on an agarose gel to check for complete linearization. The plasmid DNA was phenol:chloroform purified and ethanol precipitated. The pellet was re-suspended in deionized water. Capped RNA was synthesized using mMessage mMachine T7 kit from 1 μg linearized plasmid DNA, the sample phenol:chloroform purified and isopropanol precipitated. The pellet was re-suspended in deionized water to a concentration of 500 ng/μl, analysed on an agarose gel for integrity and stored at −80° C. until further use.
Xenopus laevis oocytes were purchased as whole ovaries from the European Xenopus Resource Centre (University of Portsmouth), delivered in less than 24 h in Modified Barth's Saline (MBS) on wet ice. Upon arrival, the oocytes were treated with 2 mg/ml collagenase type I (Sigma-Aldrich) in calcium-free Barth's solution (NaCl 88 mM, Tris-HCl 15 mM, NaHCO32.4 mM, MgCl2 0.82 mM, KCl 1 mM, pH 7.5) for 30 min at room temperature. […] Following ligand application, the current required to maintain the membrane potential at −60 mV was measured and used for subsequent data analysis. […]

CC(=O)OCC[N+](C)(C)C [ACh, acetylcholine]
EC50: 108 ± 27 µM
